Measured values: patent US8765959B2, “Piperidine derivatives” (Boehringer Ingelheim International GmbH, priority 2011, dated 2014)

The chains behind the UniProt entries cited, without tags or fusion partners. Residues count along the entry.
UniProt O00763, 129-2458 limits assumed: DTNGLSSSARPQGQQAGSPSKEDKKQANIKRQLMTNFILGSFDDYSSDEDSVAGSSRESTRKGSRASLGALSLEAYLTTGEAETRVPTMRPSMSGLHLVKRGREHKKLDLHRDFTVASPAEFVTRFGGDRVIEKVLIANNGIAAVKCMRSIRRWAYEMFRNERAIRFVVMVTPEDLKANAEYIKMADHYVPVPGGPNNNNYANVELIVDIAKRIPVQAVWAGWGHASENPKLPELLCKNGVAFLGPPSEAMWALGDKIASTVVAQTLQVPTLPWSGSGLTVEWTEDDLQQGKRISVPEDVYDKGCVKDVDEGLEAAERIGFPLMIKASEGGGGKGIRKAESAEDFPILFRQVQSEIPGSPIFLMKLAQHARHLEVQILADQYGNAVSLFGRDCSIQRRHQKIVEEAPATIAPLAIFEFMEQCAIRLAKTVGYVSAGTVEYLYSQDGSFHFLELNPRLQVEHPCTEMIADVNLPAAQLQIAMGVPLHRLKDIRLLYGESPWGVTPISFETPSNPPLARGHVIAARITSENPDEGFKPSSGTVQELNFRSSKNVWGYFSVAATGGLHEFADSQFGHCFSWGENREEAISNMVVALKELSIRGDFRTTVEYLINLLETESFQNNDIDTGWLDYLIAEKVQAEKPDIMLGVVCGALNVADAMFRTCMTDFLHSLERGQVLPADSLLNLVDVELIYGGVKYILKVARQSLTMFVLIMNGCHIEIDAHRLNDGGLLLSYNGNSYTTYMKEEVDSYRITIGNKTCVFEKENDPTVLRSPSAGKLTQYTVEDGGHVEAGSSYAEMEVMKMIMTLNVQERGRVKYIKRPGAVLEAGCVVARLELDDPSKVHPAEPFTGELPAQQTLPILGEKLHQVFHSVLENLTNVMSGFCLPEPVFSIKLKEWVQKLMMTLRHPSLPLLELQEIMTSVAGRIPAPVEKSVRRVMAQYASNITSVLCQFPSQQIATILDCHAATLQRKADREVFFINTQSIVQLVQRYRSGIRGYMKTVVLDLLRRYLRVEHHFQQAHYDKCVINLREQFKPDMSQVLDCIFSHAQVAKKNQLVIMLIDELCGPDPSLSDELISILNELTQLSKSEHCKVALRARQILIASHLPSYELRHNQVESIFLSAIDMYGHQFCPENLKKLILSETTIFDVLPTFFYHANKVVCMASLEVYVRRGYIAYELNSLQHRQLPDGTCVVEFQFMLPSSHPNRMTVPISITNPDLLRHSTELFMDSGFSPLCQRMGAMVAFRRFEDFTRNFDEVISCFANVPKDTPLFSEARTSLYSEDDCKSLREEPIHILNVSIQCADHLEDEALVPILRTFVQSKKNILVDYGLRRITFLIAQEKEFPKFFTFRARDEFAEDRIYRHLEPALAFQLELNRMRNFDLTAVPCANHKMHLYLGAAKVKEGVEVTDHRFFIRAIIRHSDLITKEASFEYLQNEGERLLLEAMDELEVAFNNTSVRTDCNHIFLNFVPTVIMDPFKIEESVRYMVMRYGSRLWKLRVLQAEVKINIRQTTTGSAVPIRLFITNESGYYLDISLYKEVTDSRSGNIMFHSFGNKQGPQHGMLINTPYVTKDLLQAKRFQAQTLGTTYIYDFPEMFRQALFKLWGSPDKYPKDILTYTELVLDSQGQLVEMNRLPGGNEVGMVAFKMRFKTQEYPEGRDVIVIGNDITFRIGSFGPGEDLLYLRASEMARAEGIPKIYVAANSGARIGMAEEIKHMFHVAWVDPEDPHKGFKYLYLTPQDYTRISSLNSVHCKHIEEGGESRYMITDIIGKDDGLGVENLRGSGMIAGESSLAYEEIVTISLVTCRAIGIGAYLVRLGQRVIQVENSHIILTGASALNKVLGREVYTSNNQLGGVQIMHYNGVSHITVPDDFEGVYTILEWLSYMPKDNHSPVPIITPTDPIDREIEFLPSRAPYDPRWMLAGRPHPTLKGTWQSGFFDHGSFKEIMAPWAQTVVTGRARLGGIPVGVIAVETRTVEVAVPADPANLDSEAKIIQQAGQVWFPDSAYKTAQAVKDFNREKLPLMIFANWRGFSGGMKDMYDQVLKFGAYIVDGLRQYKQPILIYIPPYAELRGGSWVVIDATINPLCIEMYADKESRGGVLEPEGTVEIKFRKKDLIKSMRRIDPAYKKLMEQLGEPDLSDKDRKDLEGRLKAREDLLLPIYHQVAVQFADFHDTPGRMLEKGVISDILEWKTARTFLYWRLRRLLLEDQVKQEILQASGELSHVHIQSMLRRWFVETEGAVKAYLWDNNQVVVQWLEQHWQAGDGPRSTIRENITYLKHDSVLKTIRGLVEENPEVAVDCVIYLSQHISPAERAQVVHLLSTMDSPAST

Molecular target: human ACC2 (Homo sapiens, UniProt O00763)
Assay: ACC2 assay, spectrophotometric 384 well assay (NADH-linked, coupled lactate dehydrogenase/pyruvate kinase)
Type: biochemical
Settings: human ACC2 construct lacking 128 N-terminal amino acids, 25° C., 340 nm, 15 minutes
Experimental: Spectrophotometric 384 Well Assay
Malonyl CoA formation by acetyl CoA carboxylases is stoichometrically linked to the consumption of ATP. ACC2 activity is measured in a NADH-linked kinetic method measuring ADP generated during the ACC reaction using a coupled lactate dehydrogenase/pyruvate kinase reaction.
For biological testing, a human ACC2 construct which lacks the 128 amino acids at the N-terminus for increased solubility (nt 385-6966 in Genbank entry AJ575592) is cloned. The protein is then expressed in insect cells using a baculoviral expression system. Protein purification is performed by anion exchange.
All compounds are dissolved in dimethyl sulfoxide (DMSO) to a concentration of 10 mM.
Assay reactions are then carried out in 384-well plates, with hACC2 in an appropriate dilution and at final assay concentrations (f.c.) of 100 mM Tris (pH 7.5), 10 mM trisodium citrate, 25 mM KHCO3, 10 mM MgCl2, 0.5 mg/ml BSA, 3.75 mM reduced L-glutathione, 15 U/ml lactate dehydrogenase, 0.5 mM phosphoenolpyruvate, 15 U/ml pyruvate kinase, compounds at different concentrations at final DMSO concentrations of 1%.
The enzymatic reaction is then started by addition of a mixture of NADH, acetyl Coenzyme A (both 200 μM f.c.) and ATP (500 uM f.c.). The decrease of the optical density (slope S) is then determined at 25° C. at a wavelength of 340 nm over 15 minutes in a spectrophotometric reader.
Each assay microtiter plate contains wells with vehicle instead of compound as controls for the non-inhibited enzyme (100% CTL; ‘HIGH’) and wells without acetyl-CoA as controls for non-specific NADH degradation (0% CTL; ‘LOW’).
The slope S is used for calculation of % CTL=(S(compound)−S(‘LOW’))/(S(‘HIGH’)−S(‘LOW’))*100. Compounds will give values between 100% CTL (no inhibition) and 0% CTL (complete inhibition).
For IC50 value determination, the sample slope in the presence of the test compound after subtraction of the low controls (S(compound)−S(‘LOW’)) are used.
An IC50 value is derived from the compound slopes at different dosages after subtraction of the low controls (S(compound)−S(‘LOW’)) by non-linear regression curve fitting (equation y=(A+((B−A)/(1+((C/x)^D))))).

Structure (SMILES) | IC50 [nM]
CCCOc1ccc(C2CCN(c3ccc(C(C)NC(C)=O)cc3F)CC2)c(C)c1 (stereo not drawn) | 60
CC(=O)N[C@@H](C)c1ccc(N2CCC(c3ccc(OCC4CC4)cc3F)CC2)cc1 | 130
CC(=O)N[C@@H](C)c1ccc(N2CCC(c3ccc(OCC4CC4)cc3)CC2)cc1 | 260
CCCOc1ccc(C2CCN(c3ccc(C(C)NC(C)=O)c(F)c3)CC2)cc1 (stereo not drawn) | 240
CC(=O)N[C@@H](C)c1ccc(N2CCC(c3ccc(OC(C)C)cc3)CC2)cc1 | 170
CC(=O)NC(C)c1ccc(N2CCC(c3ccc(OC4CCC4)cc3)CC2)cc1F (stereo not drawn) | 160
